# In patent US11242347B2, “2-phenyl-3,4-dihydropyrrolo[2,1-Ff] [1,2,4]triazinone derivatives as phosphodiesterase inhibitors and uses thereof” (TOPADUR PHARMA AG, priority 2015, dated 2022):
# Target: human phosphodiesterase-5 (PDE5 enzyme isolated from human platelets) (Homo sapiens (Human), UniProt O76074)
# Assay: PDE5 assay: formation of 5′GMP from cGMP (SPA)
# Settings: for % inhibition at 5.0E−09M: percent inhibition of the control enzyme activity
SMILES,IC50 [nM],% inhibition at 5.0E−09M [%]
"CCCc1c(/C=N/OC)c(C)c2c(=O)[nH]c(-c3cc(S(=O)(=O)N4CCN(CCO)CC4)ccc3OCC)nn12 [Compound 1y, 2-(2-ethoxy-5-((4-(2-hydroxyethyl)piperazin-1-yl)sulfonyl)phenyl)-5-methyl-4-oxo-7-propyl-3,4-dihydropyrrolo[2,1-f][1,2,4]triazine-6-carbaldehyde O-methyloxime]",4.1,–
"CCCOc1ccc(S(=O)(=O)N2CCC(CCO)CC2)cc1-c1nn2c(CCC)c(/C=N/O)c(C)c2c(=O)[nH]1 [Compound 1r, (E)-2-(5-((4-(2-hydroxyethyl)piperidin-1-yl)sulfonyl)-2-propoxyphenyl)-5-methyl-4-oxo-7-propyl-3,4-dihydropyrrolo[2,1-f][1,2,4]triazine-6-carbaldehyde oxime]",–,74.0
"CCCc1c(/C=N/OCCO)c(C)c2c(=O)[nH]c(-c3cc(S(=O)(=O)N4CCN(CCO)CC4)ccc3OCC)nn12 [Compound 1z, (E)-2-(2-ethoxy-5-((4-(2-hydroxyethyl)piperazin-1-yl)sulfonyl)phenyl)-5-methyl-4-oxo-7-propyl-3,4-dihydropyrrolo[2,1-f][1,2,4]triazine-6-carbaldehyde O-(2-hydroxyethyl) oxime]",–,87.0
